# In PubChem BioAssay AID1217 (Sanford-Burnham Center for Chemical Genomics, 2008):
# The entries are a selection whose mix differs from that of the whole data set. Calls of active or inactive are those of the source.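 Rule for the calls: active = primary screen inhibition at 20 µM above a set limit (cut at about 50% in these data); inactive = the rest.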
# Test system: diaphorase (Clostridium kluyveri)
# Experiment: compounds blocking diaphorase resazurin reduction – biochemical, uHTS, resorufin fluorescence, counter-screen for diaphorase-coupled primary assays, primary screen (AID 1217);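 note: plate controls were DMSO with full reaction for no effect and wells lacking NADH for full effect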
# Details: diaphorase resazurin-to-resorufin fluorescence, NADH, 16 min; at 20 µM; hits give high values; bacterial (C. kluyveri) enzyme, not human
row,SMILES,inhibition
1,Cc1ccccc1NP(C)(=O)Nc1ccccc1C,inactive: -3.1%
2,CP(=O)(Nc1ccc2c(c1)OCCO2)Oc1ccccc1 (centres undefined),inactive: 11%
3,CCOP(C)(=S)SCC(=O)NC(C)(CC)C(=O)O (centres undefined),inactive: 9.8%
4,O=[N+]([O-])c1cc([N+](=O)[O-])c(NCC2CCS(=O)(=O)C2)c([N+](=O)[O-])c1 (centres undefined),inactive: 18.9%
5,COc1ccc(NP(C)(=O)Oc2ccccc2OC)cc1 (centres undefined),inactive: 3.7%
6,CN(C)CCOC(=O)C(O)(c1ccccc1)C1CCCCC1 (centres undefined),inactive: 3.7%
7,COc1ccc(OP(C)(=O)Nc2cccc(Br)c2)cc1 (centres undefined),inactive: 9.3%
8,CP(=O)(Nc1ccccc1)Oc1ccc(F)cc1 (centres undefined),inactive: -1.8%
9,CCN(CC)CCCOC(=O)C(O)(c1ccccc1)C1CCCCC1 (centres undefined),inactive: 2.5%
10,COc1ccc(OP(C)(=O)Nc2ccc(SC(F)(F)F)cc2)cc1 (centres undefined),inactive: 0%
11,CCOC(=O)c1ccc(NP(C)(=O)Oc2ccc(F)cc2)cc1 (centres undefined),inactive: 4.9%
12,O=C(OCCN1CCN(CCOCc2ccccc2)CC1)C(O)(c1ccccc1)c1ccccc1,inactive: 10.9%
13,CC(C)c1ccc(OP(C)(=O)Nc2ccc(SC(F)(F)F)cc2)cc1 (centres undefined),inactive: 30.8%
14,CP(=O)(Nc1ccccc1F)Oc1ccccc1 (centres undefined),inactive: 3.3%
15,CCc1ccc(OP(C)(=O)O)cc1,inactive: 3.7%
16,COc1ccccc1OP(C)(=O)Nc1ccc(C)cc1C (centres undefined),inactive: 6.3%
17,CP(=O)(Nc1ccccn1)Oc1ccccc1 (centres undefined),inactive: 11.3%
18,Cc1c(NP(C)(=O)Oc2ccc(C(C)C)cc2)c(=O)n(-c2ccccc2)n1C (centres undefined),inactive: -12.9%
19,O=[N+]([O-])c1cc([N+](=O)[O-])c(Nc2ccccn2)c([N+](=O)[O-])c1,inactive: 11.3%
20,CN(C)CCOC(=O)C(O)(c1ccccc1)C1CCCC1 (centres undefined),inactive: 4.2%
21,CP(=O)(Nc1ccc(Cl)cc1Cl)Oc1ccccc1 (centres undefined),inactive: 9.5%
22,CP(=O)(OCCOc1ccccc1)OCCOc1ccccc1,inactive: 1.5%
23,Cc1nc2ccc3ccccc3c2o1.O=[N+]([O-])c1cc([N+](=O)[O-])c(O)c([N+](=O)[O-])c1,inactive: 47.6%

row,SMILES,inhibition
1,COc1ccc(OP(C)(=O)Nc2ccccc2Br)cc1 (centres undefined),inactive: 8.4%
2,COc1ccccc1OP(C)(=O)Nc1ccc(C)c(C)c1 (centres undefined),inactive: 7.2%
3,Cc1cc(C)cc(OP(C)(=O)Nc2cccc(C(F)(F)F)c2)c1 (centres undefined),inactive: 22.6%
4,CP(=O)(OC12CC3CC(CC(C3)C1)C2)OC12CC3CC(CC(C3)C1)C2,inactive: 15.2%
5,CCOC(=O)c1ccc(NP(C)(=O)Oc2ccc(Cl)cc2)cc1 (centres undefined),inactive: 4.7%
6,CN(C)C(=O)c1c([N+](=O)[O-])cc([N+](=O)[O-])cc1[N+](=O)[O-],inactive: 13.4%
7,CP(=O)(Nc1ccc(Cl)cc1)Oc1ccc(F)cc1 (centres undefined),inactive: 11.3%
8,COc1ccccc1OP(C)(=O)Nc1ccccc1Br (centres undefined),inactive: 10.2%
9,CC(C)(C)c1ccc(OP(C)(=O)O)cc1,inactive: 8.5%
10,CCc1ccc(OP(C)(=O)Nc2cccnc2)cc1 (centres undefined),inactive: 8.9%
11,CP(=O)(Oc1ccccc1)N1CCOC1=O (centres undefined),inactive: 2.3%
12,COc1ccccc1OP(C)(=O)Nc1c(C)n(C)n(-c2ccccc2)c1=O (centres undefined),inactive: 12.7%
13,COc1ccc(OP(C)(=O)Nc2ccc(Br)cc2)cc1 (centres undefined),inactive: 23.8%
14,CCN(CC)CC(O)COC(=O)C(O)(c1ccccc1)C1CCCCC1 (centres undefined),inactive: 9.9%
15,CP(=O)(Nc1ccccn1)Oc1ccc(Cl)cc1 (centres undefined),inactive: -8.9%
16,CCOP(C)(=S)SCC(=O)NC(C)C(=O)O (centres undefined),inactive: 17.3%
17,CCOC(=O)c1ccc(NP(C)(=O)Oc2ccc(OC)cc2)cc1 (centres undefined),inactive: 13.4%
18,Cc1cc(C)cc(OP(C)(=O)Nc2ccc(SC(F)(F)F)cc2)c1 (centres undefined),inactive: 28.1%
19,CP(=O)(NC(=O)Nc1ccccc1)Oc1ccccc1 (centres undefined),inactive: 10.2%
20,CP(=O)(Oc1ccccc1)OC(c1ccccc1)C(F)(F)F (centres undefined),inactive: 10.7%
21,Cc1cccc(C)c1OP(C)(=O)Nc1ccc(SC(F)(F)F)cc1 (centres undefined),inactive: 29%
22,COc1ccccc1OP(C)(=O)Nc1ccccc1 (centres undefined),inactive: 10.7%
23,CP(=O)(Nc1ccccc1Br)Oc1ccccc1 (centres undefined),inactive: 12.1%

row,SMILES,inhibition
1,CP(=S)(Nn1cnnc1)Oc1ccccc1 (centres undefined),inactive: 12.6%
2,COc1ccc(OP(C)(=O)Nc2cccc(F)c2)cc1 (centres undefined),inactive: 3.5%
3,COc1ccccc1OP(C)(=O)Nc1cc(Cl)ccc1C (centres undefined),inactive: 11.6%
4,Cc1cc(C)cc(OP(C)(N)=O)c1 (centres undefined),inactive: 5.8%
5,CCOC(=O)c1ccc(NP(C)(=O)Oc2ccccc2)cc1 (centres undefined),inactive: 6%
6,Cc1ccc(NP(C)(=O)Oc2ccccc2)c(C)c1 (centres undefined),inactive: 1.3%
7,COc1ccccc1OP(C)(=O)Nc1ccc(C)cc1 (centres undefined),inactive: 19.7%
8,Cc1cccc(C)c1OP(C)(N)=O (centres undefined),inactive: -8.5%
9,CC(C)(C)c1ccc(OP(C)(=O)Nc2ccc(SC(F)(F)F)cc2)cc1 (centres undefined),inactive: 26.4%
10,O=[N+]([O-])c1ccc2c(c1)C=Nc1ccccc1O2,inactive: 7.1%
11,CCN(CC)CCCOC(=O)C(O)(c1ccccc1)c1ccccc1,inactive: 6.8%
12,Cc1cc(C)cc(OP(C)(=O)Nc2ccccn2)c1 (centres undefined),inactive: 11%
13,CP(=O)(Nc1cccc(Br)c1)Oc1ccccc1 (centres undefined),inactive: 15.3%
14,Cc1ccc(C)c(NP(C)(=O)Oc2ccccc2)c1 (centres undefined),inactive: -1.6%
15,Cc1cc(C)cc(OP(C)(=O)Nc2ccc(C)cc2C)c1 (centres undefined),inactive: 7.1%
16,CCOC(=O)c1ccc(NP(C)(=O)Oc2cc(C)cc(C)c2)cc1 (centres undefined),inactive: 0%
17,CC1=NCCc2c1[nH]c1ccccc21.O=[N+]([O-])c1cc([N+](=O)[O-])c(O)c([N+](=O)[O-])c1,inactive: -7.4%
18,CCCOc1ccc(NP(C)(=O)Oc2ccc(Cl)cc2)cc1 (centres undefined),inactive: 2.6%
19,CP(=O)(Nc1ccc(SC(F)(F)F)cc1)Oc1ccccc1 (centres undefined),inactive: 2.7%
20,CN1CCCCC1COC(=O)C1(O)c2ccccc2CCc2ccccc21 (centres undefined),inactive: 10.1%
21,COc1ccccc1OP(C)(=O)Nc1c(C)cccc1C (centres undefined),inactive: 8.2%
22,Cc1nc2ccc3ccccc3c2s1.O=[N+]([O-])c1cc([N+](=O)[O-])c(O)c([N+](=O)[O-])c1,inactive: 13.9%
23,O=[N+]([O-])c1cc([N+](=O)[O-])c(-n2nnc3ccccc32)c([N+](=O)[O-])c1,inactive: 6.4%
